Results reported in US20110124626A1, “BENZAZEPINE DERIVATIVES AND THEIR USE AS HISTAMINE H3 ANTAGONISTS” (TAKEDA PHARMACEUTICAL COMPANY LIMITED, priority 2008, published 2011).

Sequences of proteins named here, by UniProt entry; tags and fusion partners are left off.
UniProt Q9Y5N1, whole entry: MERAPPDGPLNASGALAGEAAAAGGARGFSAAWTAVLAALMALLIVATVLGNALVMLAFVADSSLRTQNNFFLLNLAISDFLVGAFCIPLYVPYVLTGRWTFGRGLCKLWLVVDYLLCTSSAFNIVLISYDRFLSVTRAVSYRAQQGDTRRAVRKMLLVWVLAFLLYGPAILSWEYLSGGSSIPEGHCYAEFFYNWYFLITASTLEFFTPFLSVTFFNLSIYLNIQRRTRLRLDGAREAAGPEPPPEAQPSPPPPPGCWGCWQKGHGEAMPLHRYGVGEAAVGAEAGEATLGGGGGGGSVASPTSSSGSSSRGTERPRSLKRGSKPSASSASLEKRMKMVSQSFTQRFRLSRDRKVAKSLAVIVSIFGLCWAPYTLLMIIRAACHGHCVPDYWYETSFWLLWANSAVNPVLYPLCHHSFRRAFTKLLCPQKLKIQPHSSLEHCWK

Columns and labels:
human H3 receptor [1] = molecular target: T1, human H3 receptor (Homo sapiens, UniProt Q9Y5N1); assay: In vitro H3 functional assay (cAMP response element driven luciferase reporter); details: read-out: hH3 functional IC50; CHO(dhfr+)-cre-luc cells expressing human H3 receptor; RαMH 10 nM, forskolin 1 μM
Procedure: The functional activity of compounds at the H3 receptor was determined by measuring changes in the level of intracellular cAMP using a cAMP response element driven luciferase reporter assay. The changes in luciferase expression were monitored by a luminescence plate reader, Analyst HT (MDS Analytical). Increases in intracellular cAMP were readily detected upon activation of protein kinase A by forskolin (Sigma) and suppression of this response observed with the application of the H3 receptor agonist RαMH (Sigma).
CHO(dhfr^+)-cre-luc cells stably expressing human H3 receptor were routinely grown as monolayers in Minimal Essential Medium α (MEMα) (Invitrogen) supplemented with 10% dialysed FBS (Hyclone), in 5% CO2 at 37° C. 48 hours prior to assay, cells were seeded in clear-base white walled 384-well plates (Corning) at a density of 5000 cells/well. On the day of assay, growth media was removed and replaced with […] of assay buffer (MEMα, 5 mg/ml fatty acid free BSA (Sigma)) per well. Cells were then incubated for 30 minutes at 37° C., 5% CO2. Compound was serially diluted in DMSO before being diluted 1:10 with assay buffer. 2.5 of compound diluted in assay buffer was added and cells incubated for 5 minutes at 37° C., 5% CO2. […] The level of light output to determine the level of luciferase expression was then measured. […]

human H3 receptor [2] = molecular target: T1, human H3 receptor; assay: In vitro H3 binding assay (3H-N-α-methyl-histamine competition binding); details: read-out: hH3 binding IC50; membranes of CHO-K1 cells expressing human H3 receptor; 2 nM 3H-NαMH
Procedure: The ability of compounds to bind to the H3 receptor was determined by measuring the reduction in tritiated N-α-methyl-histamine (^3H—NαMH) binding in a competition binding assay. Changes in the levels of bound radio-label were monitored by scintillation counting with a Trilux Microbeta (Perkin Elmer).
Membranes were prepared from CHO-K1 cells stably expressing human H3 receptor; routinely grown as monolayers in Ham's F12 medium (Invitrogen) supplemented with 10% Foetal Clone 111 (Hyclone), 500 μg/ml G418 (Invitrogen), 5 μg/ml blasticidine S (Invivogen) and […] Gentamicin (Sigma) in 5% CO2 at 37° C. […] Membranes were suspended in homogenisation buffer, protein concentration was determined (BCA Protein Assay kit (Pierce)), diluted to 2.2 mg/ml, dispensed into 1 ml aliquots and stored at −80° C.
Membranes were thawed on ice, sonicated with 4 cycles of 20 pulses (50% amplitude, 0.5 pulse) (UP200S Hielscher) on ice, diluted in assay buffer (50 mM Tris-HCl (pH7.4), 5 mM MgCl2) to 62.5 μg/ml. […] Total binding was determined in the presence of 1% DMSO and non-specific binding was determined by the inclusion of 1 μM R-α-methyl-histamine (RαMH). […] Filtermats were dried at 42° C. for two hours, scintillant added and the level of bound radioactivity determined. […]

| SMILES | IC50 (human H3 receptor [1]) | IC50 (human H3 receptor [2]) |
| --- | --- | --- |
| Cc1cc(CNC(=O)c2ccc3c(c2)CCN(C2CCC2)CC3)nn1C | 4 nM | 9 nM |
| N#Cc1ccccc1CNC(=O)c1ccc2c(c1)CCN(C1CCC1)CC2 | – | 12 nM |
